The values below are quoted from earlier work in patent publication US20140171436A1, “TREATMENT OF ANTIFOLATE NEUROTOXICITY” (Syntrix Biosystems, Inc., priority 2003, published 2014).

Molecules are shown by their SMILES.

A word on the Ki: it is the dissociation constant of the complex between target and ligand, obtained from inhibition or displacement.

In the data set the target is NMDA receptor. Conditions: read-out: Ki NMDAR; cited from earlier work.

As to `COc1ccc2c(c1)[C@@]13CCCC[C@H]1[C@@H](C2)N(C)CC3` [dextromethorphan, (+)-3-methoxy-N-methylmorphinan], the Ki is 7 µM.
